Laboratory results as given in patent US12005094B2, “Inhibitor of inflammatory conditions” (Compton Developments Ltd., priority 2009, dated 2024).

Tested on: MMP9
Test: TNFα-induced MMP9 in HaCaT keratinocytes, gelatinase zymography (in vitro psoriasis model)
Format: cell-based, human
Settings: substance alone (BFE or Anti-TNFα mAb 10 ug/ml; TNFα 5 ng/ml), 72 hours
Source text: For the in vitro psoriasis model, this study used the HaCaT human keratinocyte cell line, which was obtained from ATCC/LGC standard (Teddington, Middlesex, UK). Cells were routinely cultured with Dubecco's modified Eagle medium (DMEM) supplemented with 10% foetal bovine serum, penicillin and streptomycin (Thermo Fisher Scientific, Paisley, UK). HaCaT cells were passaged for less than 2 months before fresh cells were resuscitated from earlier cryogenically preserved stocks. HaCaT cells were treated in the following conditions in triplicate. Recombinant human tumour necrosis factor alpha was obtained from PeproTech (PeproTech house, London, UK) and was used at a final concentration of 5 ng/ml throughout the study unless otherwise stated.
Boswellia frereana gum resin was purchased from Hargeisa, Somaliland, and successfully extracted as described previously. […] The constituents of BFE were then analysed and verified through GC-MS. […]
Treatments groups were added in triplicate/group (composed of the following: 1) Control (media only); 2) BFE [10 ug/ml]; 3) Anti-TNFα mAb [10 ug/ml]; 4) TNFα [5 ng/ml]; 5) TNFα [5 ng/ml]+BFE [10 ug/ml]; and 6) TNFα [5 ng/ml]+Anti-TNFα mAb [10 ug/ml]) and incubated for 72 hours. […] MMP9 protein levels was assessed and quantified using Image J analysis software and densitometry evaluation.

## TNFα: Recombinant human tumour necrosis factor alpha, inflammatory stimulus at 5 ng/ml
  MMP9 Densitometry Value: 48778.8
  MMP9 Normalised values: 38.0 densitometry units/ug total protein
